Earlier results, collected in article PMC4621241.
Read-outs that look alike come from different tables or passages of the source.

What was measured:
[1] = target: Maltose transporter (Escherichia coli) (UniProt P02916)
[2] = target: Maltose transporter (Escherichia coli) (UniProt P02916); remark: listed apart in the source

Substance: Maltose binding protein (from UniProt P0AEX9)
- Kd [1]: 400 nM
- Kd [2]: 80 nM
